Assay [1] relates to G-actin. Kind of assay: Microscale thermophoresis (MST), Las17 fragments to labelled G-actin. It counts as binding, rabbit. To be noted: under similar conditions, comparator ref [15]. How it is done: Rabbit skeletal muscle actin was gel filtered as described. Concentrations of G-actin produced and used in experiments were in the range 35–65 µM.
Microscale Thermophoresis (MST) assays were performed as described previously. Briefly, rabbit muscle actin in G-buffer minus DTT was […] using Monolith NT^TM Protein Labelling Kit RED-Malemide (NanoTemper Technologies, Munich, Germany). Las17 was prepared as a two-fold serial dilution across 16 tubes and an equal volume of labelled actin was added to each reaction (Final buffer conditions: 25 nM actin, G-buffer + 0.05% Tween). Each reaction was then loaded into Monolith NT.115 Premium Treated Capillaries (NanoTemper Technologies) and thermophoresis was measured in a Monolith NT.115 Microscale Thermophoresis device (NanoTemper Technologies). Thermophoresis was measured at 20% red LED power and 40% IR laser power at 22°C. Fnorm was calculated from the ratio of fluorescence before heating and after the new equilibrium had been reached. Fnorm was then plotted against Las17 concentration to give the Las17 dependent change in thermophoresis. This was described by the ‘Kd fit’ model on the provided software to give Kds for actin binding to Las17 fragments. Each experiment was carried out three separate times with protein from different protein preparations and mean ± SE shown except for Fig. 7a where mean ± SD is shown.

Assay [2] addresses G-actin. Description: MST, Las17 300-422 to labelled G-actin in presence or absence of Sla1 SH3#1-3 (competition). It counts as binding, rabbit. The settings on record: Las17 and Sla1; Sla1 SH3#1-3 4.5 µM; actin 50 nM; Allosteric sigmoidal least squares fit; read-out: apparent Kd, in presence of Sla1. How it is done: Having established that both actin and Sla1-SH3 domains can bind Las17 at sites in the N-terminal PPR, we next determined whether binding occurs concurrently or whether SH3 domains directly compete for binding. Competition for PPR binding sites could be at least part of the mechanism underlying Sla1 inhibition of actin polymerisation. Relevant proteins and fragments were purified. G-actin binding to Las17 was established using MST, with an actin concentration of 50 nM, and Las17(300–422) concentrations between 0.29 and 9.5 µM. The experiment was then repeated with the addition of Sla1 SH3#1-3 fragment at 4.5 µM. […]
Fig. 7 Factors affecting Las17 interactions. […] C Quantification of liposome co-sedimentation assays. Šídák’s multiple comparisons test P < 0.0001 (n = 6). […]
Microscale Thermophoresis (MST) assays were performed as described previously. […] Each reaction was then loaded into Monolith NT.115 Premium Treated Capillaries (NanoTemper Technologies) and thermophoresis was measured in a Monolith NT.115 Microscale Thermophoresis device (NanoTemper Technologies). Thermophoresis was measured at 20% red LED power and 40% IR laser power at 22°C. Fnorm was calculated from the ratio of fluorescence before heating and after the new equilibrium had been reached. […]

For orientation: pKd means the negative decadic logarithm of the Kd, by convention in mol/L.

pKd: −log10 of the molar value.

With “Las17(342–392): minimal Las17 fragment with two arginine-pair actin sites, left on GST tag”, the “fold weaker G-actin binding than Las17(300–422)” value with G-actin [1] was “about 10 fold”.

“Las17: Las17 fragment; residues not stated for TIRF; in b194 Las17 300–422; in b52 full length Las17-GFP in cells”: the pKd on G-actin [2] was 5.86.
